The numbers were not newly measured in patent US6565840B1, “Monomeric compositions effective as wound closure devices” (Closure Medical Corporation, priority 1996, dated 2003), which cites them from elsewhere.

SMILES strings stand for the structures. Some compounds may have been tested in ways that are not shown here.

What is called pKa is the pH at which an ionisable group is half protonated.

With `O=[N+]([O-])c1cc([N+](=O)[O-])c(O)c([N+](=O)[O-])c1`, the pKa was 0.3.
